From article PMC9035150, “Effects of ALT-801, a GLP-1 and glucagon receptor dual agonist, in a translational mouse model of non-alcoholic steatohepatitis” (Scientific Reports, 2022)

Assays:
[1] = tested on: DIO-NASH mouse model; experiment: Biopsy-confirmed DIO-NASH (AMLN diet) mouse model, 12 weeks of daily treatment; type: in vivo
Protocol: ALT-801 was evaluated for its metabolic and anti-fibrotic effects during 12 weeks of treatment in the well-documented Amylin Liver NASH (AMLN) DIO-NASH mouse model[22],[44] at Gubra ApS. Mice had ad libitum access to tap water and a diet high in fat (40%, containing 18% trans-fat; 40% carbohydrates, 20% fructose) and 2% cholesterol (AMLN diet; D09100301, Research Diets, New Brunswick, NJ). Semaglutide (GLP-1R agonist) and elafibranor (peroxisome proliferator-activated receptor [PPAR]-α/δ agonist) were included as comparators to assess the effects of added GCGR agonism, and a previously observed modest antifibrotic effect in this assay, respectively.
All experiments were conducted in accordance with Gubra Aps’ bioethical guidelines, which were fully compliant with internationally accepted principles for the care and use of laboratory animals. The Danish Animal Experiments Inspectorate approved all experiments which were conducted using internationally accepted principles for the use of laboratory animals under the personal license #2013-15-2934-00784. We also confirm that the study was carried out in compliance with the ARRIVE guidelines. Sixty male, 5-wk old, wild-type C57BL/6J mice (JanVier Labs, France) were group housed in a controlled environment (12 h light–dark cycle, 21 ± 2 °C, 50 ± 10% humidity) and fed the AMLN diet high in trans-fat, cholesterol, and fructose[46] ad libitum for 32 weeks to induce obesity and the NASH phenotype.
After 29 weeks of diet induction (week-3 relative to start of treatment) a pre-treatment liver biopsy was performed as described in detail previously[44] to select animals for stratification and randomization based on histological assessment. Liver histology was scored using the NAS and fibrosis stage criteria defined by the NASH Clinical Research Network Pathology Committee[47] and only those animals with confirmed steatosis (score ≥ 2) and fibrosis (stage ≥ 1) were selected for stratification and randomization. A stratified randomization into treatment groups was performed for the biopsy-proven DIO-NASH mice according to liver collagen type 1 alpha 1 (Col1A1) quantification at week-3. Test animals (n = 12/group) were then single housed and treated once daily for a period of 12 weeks while maintaining the AMLN diet. Treatment groups were vehicle (0.05% Tween 80 in 50 mM Na2HPO4, pH 8, s.c.), 10 nmol/kg semaglutide (0.02 mg/mL, s.c.), 5 nmol/kg ALT-801 (0.02 mg/mL, s.c.), 10 nmol/kg ALT-801 (0.02 mg/mL, s.c.), or 78 μmol/kg elafibranor (6 mg/mL in 0.5% carboxymethyl cellulose, oral). ALT-801 and semaglutide were synthesized (≥ 95% purity) and supplied as acetate salts by CS Bio Co. (Menlo Park, CA). Elafibranor was obtained from Sunshine Chemical (Wuhan, China). After a total of 12 weeks on treatment, the animals were euthanized, and liver tissue and terminal plasma were collected for histological and biochemical analysis.
Paraffin embedded slides of biopsied baseline liver tissue (50 to 100 mg) and terminal samples (approximately 200 mg) were prepared to assess hepatic morphology including steatosis and fibrosis by staining with hematoxylin and eosin (H&E) and picrosirius red, respectively. Immunohistochemical staining for Col1A1 (baseline biopsy and terminal liver) and galectin-3 (Gal-3) (terminal samples only) was also performed to assess hepatic fibrosis and inflammation, respectively. Quantitative assessment of immunoreactivity was performed via image analysis using Visiomorph software (Visiopharm, Denmark). Blinded liver histology was scored using NAS criteria[47] and fibrosis stage.
Terminal blood samples were collected in heparinized tubes and plasma was separated and stored at − 80 °C until analysis. Triglycerides (TG), total cholesterol (TC), alanine aminotransferase (ALT), and aspartate aminotransferase (AST) plasma levels were measured using commercial kits (Roche Diagnostics, Germany) on a Cobas C-501 auto analyzer according to manufacturer’s instructions. […]

[2] = tested on: serum albumin; conditions: estimated; near quantitative but transient binding; cited from earlier work
From the text: The chemical structure of ALT-801 utilizes a stabilized peptide structure including sequence elements of both GLP-1 and glucagon, coupled with EuPort™ modification, a proprietary glycolipid moiety designed to achieve a prolonged duration of action consistent with weekly dosing. […] In addition, the surfactant-like features of the EuPort™ domain lead to formation of micelles, which, upon s.c. administration, sl ...

[3] = tested on: db/db mouse model; conditions: diabetic db/db mouse model, compared with an equivalent dose of semaglutide; cited from earlier work
From the text: Similarly, another study compared body weight, food consumption, and total energy expenditure outcomes for GLP-1R/GCGR dual agonist and a GLP-1R agonist in DIO mice and DIO monkeys.

[4] = Pharmacokinetics after a single s.c. dose in C57BL/6J mice; type: in vivo, mouse; conditions: single s.c. 10 nmol/kg
Protocol: PK parameters following a single subcutaneous (s.c.) administration of ALT-801 or semaglutide (both stock concentrations at 10 nmol/kg) were evaluated in male C57BL6/J mice at The Jackson Laboratory-JAX West (Sacramento, CA). Both compounds were formulated at 0.02 mg/mL in 50 mM phosphate buffer and 0.05% Tween 80 at pH ~ 8. The dosing volume was approximately 2 mL/kg. Blood samples (~ 200 µL) were collected at 1, 4, 8, 24, 48, 72, 96, and 120 h post-dosing (n = 4 per time point). Each mouse was bled at two time points and the second time point was a terminal bleed. Plasma concentrations of ALT-801 and semaglutide were determined using liquid chromatography coupled with tandem mass spectrometry with a limit of quantitation of 1 and 2 ng/mL for semaglutide and ALT-801, respectively. Non-compartmental PK analysis using WinNonlin was performed by using the mean concentrations at each sampling time point to report the Cmax, Tmax, the area under the plasma concentration curve from time zero to infinity (AUC0–inf), T1/2, and the mean residence time (MRT).

[5] = 10 nmol/kg s.c. daily, 12 weeks
[6] = 5 and 10 nmol/kg s.c. daily, 12 weeks, p < 0.0001
[7] = 5 and 10 nmol/kg s.c. daily, 12 weeks, p < 0.001
[8] = 5 and 10 nmol/kg s.c. daily, 12 weeks, whole liver basis, histomorphometry

CC[C@H](C)[C@H](NC(=O)[C@H](Cc1ccccc1)NC(=O)[C@H](CCC(=O)O)NC(=O)[C@@H]1CCCCNC(=O)CC[C@H](NC(=O)[C@H](CC(=O)O)NC(=O)[C@H](CC(C)C)NC(=O)[C@H](Cc2ccc(O)cc2)NC(=O)[C@H](CCCCN)NC(=O)[C@H](CO)NC(=O)[C@H](Cc2ccc(O)cc2)NC(=O)[C@H](CC(=O)O)NC(=O)[C@H](CO)NC(=O)[C@@H](NC(=O)[C@H](Cc2ccccc2)NC(=O)[C@@H](NC(=O)CNC(=O)[C@H](CCC(N)=O)NC(=O)C(C)(C)NC(=O)[C@@H](N)Cc2c[nH]cn2)[C@@H](C)O)[C@@H](C)O)C(=O)N[C@@H](CCCCNC(=O)[C@H]2O[C@@H](OCCCCCCCCCCCCCCCCCC(=O)O)[C@H](O)[C@@H](O)[C@@H]2O)C(=O)N[C@@H](C)C(=O)N[C@@H](C)C(=O)N1)C(=O)N[C@@H](CCC(N)=O)C(=O)N[C@@H](Cc1c[nH]c2ccccc12)C(=O)N[C@@H](CC(C)C)C(=O)N[C@@H](CC(C)C)C(=O)N[C@@H](CCC(N)=O)C(=O)N[C@H](C(N)=O)[C@@H](C)O [ALT-801]
Animals with reduction in fibrosis stage of 1 or greater compared to the start of treatment ([1]; 5 nmol/kg s.c. daily, 12 weeks): 64% | Animals with reduction in fibrosis stage of 1 or greater compared to the start of treatment [1, 5]: 55% | Plasma ALT levels [1, 5]: returned to the normal range | Reduction in NAS achieved by all animals [1, 5]: at least 3 | Body weight of the group ([1]; 10 nmol/kg s.c. daily, normal body weight range for this mouse strain, then maintained): ~ 30 g | Plasma TG compared to vehicle control and semaglutide groups ([1]; 5 and 10 nmol/kg s.c. daily, 12 weeks): lower | Liver weight compared to vehicle control [1, 6]: significantly decreased | Total liver TC compared to vehicle control [1, 6]: significantly lower | Total liver TG compared to vehicle control [1, 6]: significantly lower | Terminal plasma ALT compared to vehicle control [1, 7]: significantly lower | Terminal plasma AST compared to vehicle control [1, 7]: significantly lower | Liver fibrosis marker Col1A1 [1, 8]: significant reduction | Liver inflammation marker Gal-3 [1, 8]: significant reduction | Composite NAS after treatment, all animals ([1]; ALT-801 treated DIO-NASH animals, 12 weeks): ≤ 3 | Body weight vs. vehicle ([1]; daily for 12 weeks, ALT-801 5 and 10 nmol/kg s.c., semaglutide 10 nmol/kg s.c., elafibranor 78 μmol/kg oral, stabilized after 2–3 weeks, n = 11–12): significant (p < 0.001) body weight decreases | Body weight decrease after a single dose ([1]; single dose 10 nmol/kg given inadvertently to vehicle animals on day 63): ~ 8% | Binding to serum albumin [2]: > 99% | Blood glucose [3]: reduce blood glucose in the diabetic db/db mouse model at least as well as an equivalent dose of semaglutide | Cmax as % of the value for semaglutide ([4]; mice, equimolar doses): 50% | AUC as % of the value for semaglutide ([4]; mice, equimolar doses, AUC0-inf): > 86% | AUC(0-inf) ([4]; mouse, in vivo, sc, male C57BL/6J mice, plasma, LC-MS/MS, non-compartmental analysis of mean concentrations (n = 4 per time point)): 2690 ng·h/mL
